# Ab-14 heavy chain CDR variants: yeast mating affinities

From the AlphaSeq antibody data of Engelhart et al. 2022 (doi:10.1038/s41597-022-01779-4), copy in the FLAb collection.

Binding partner: SARS-CoV-2 spike HR2 peptide, sequence PDVDLGDISGINAS.

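AAYL49 was designed without a model: most single CDR substitutions and a random sample of double and triple ones. The assay is AlphaSeq: two haploid yeast populations carry antibody and antigen on their surface. The frequency of each diploid, read from paired DNA barcodes, reflects how well the two displayed proteins bind. Scores were corrected for input abundance and mapped to Kd with protein pairs of known affinity run in the same pool. Mating was done three times.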

Ab-14 is the parent antibody, in scFv form: VH, then three GGGGS repeats, then VL. The light chain is unchanged in all variants.
VH: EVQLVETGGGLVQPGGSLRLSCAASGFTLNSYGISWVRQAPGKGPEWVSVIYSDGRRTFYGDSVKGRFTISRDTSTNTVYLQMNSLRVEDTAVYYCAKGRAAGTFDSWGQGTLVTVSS
VL: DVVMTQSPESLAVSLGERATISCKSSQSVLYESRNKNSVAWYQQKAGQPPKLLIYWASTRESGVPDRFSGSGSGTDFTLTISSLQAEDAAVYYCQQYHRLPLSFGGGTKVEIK

Substitutions are numbered in sequence along the VH above, starting at 1 (not Kabat).
Scale: log10 of Kd in nM, estimated from mating counts; low values are strong binders.
The mean shown is taken over the replicates in which the pair was detected.
A pair that was not seen in any replicate is written "nd"; this usually means weak binding, but a binder can also be missed.

| mean log10 Kd (nM) | replicates with signal | signal with controls | changes |
|---|---|---|---|
| nd | 0 of 3 | 0 of 9 | I51T/S63W |
| nd | 0 of 3 | 0 of 9 | G61F/S63R/S107F |
| nd | 0 of 3 | 0 of 9 | Y52P/G61E/T104Y |
| nd | 0 of 3 | 1 of 9 | F27P/G33E/F59H |
| nd | 0 of 3 | 0 of 9 | F27H/T58I |
| nd | 0 of 3 | 1 of 9 | G61R/A102G/D106C |
| 3.28 | 3 of 3 | 0 of 9 | Y60H/S63T/G103T |
| 2.90 | 1 of 3 | 0 of 9 | N30H/R57D/S63N |
| 3.96 | 3 of 3 | 6 of 9 | G26I/S35H/Y60V |
| 3.25 | 1 of 3 | 1 of 9 | V50T/F59W/F105R |
| nd | 0 of 3 | 1 of 9 | S31W/R57S/Y60R |
| nd | 0 of 3 | 0 of 9 | I51L/S53C/S107D |
| nd | 0 of 3 | 0 of 9 | R56D/R57F/G99R |
| nd | 0 of 3 | 1 of 9 | F27Q/T28S/R57T |
| nd | 0 of 3 | 0 of 9 | S53Y/D54C/R56A |
| nd | 0 of 3 | 0 of 9 | Y52P/G99W |
| 1.80 | 1 of 3 | 0 of 9 | T28W/S53F/A102S |
| nd | 0 of 3 | 0 of 9 | I34Y/S53T/G61N |
| 3.98 | 1 of 3 | 2 of 9 | L29G/V50Q |
| 4.30 | 1 of 3 | 1 of 9 | T28W/Y52N/G61R |
| nd | 0 of 3 | 0 of 9 | L29K/G55S/A101W |
| 3.67 | 3 of 3 | 4 of 9 | S53T/V64H/D106L |
| 4.86 | 1 of 3 | 5 of 9 | G26L/F27K/V50H |
| nd | 0 of 3 | 0 of 9 | Y32F/Y52I/V64R |
| nd | 0 of 3 | 0 of 9 | I51Q/R56D/K65N |
| 4.70 | 2 of 3 | 5 of 9 | R56N/V64P/G103M |
| 1.51 | 3 of 3 | 0 of 9 | T28P/S31G/S107I |
| 2.66 | 1 of 3 | 0 of 9 | T28P/I51Y/F59I |
| 4.80 | 2 of 3 | 4 of 9 | F27A/V64W/T104R |
| nd | 0 of 3 | 4 of 9 | G55L/V64H/D106Q |
| 2.72 | 1 of 3 | 0 of 9 | I51T/D54F/F59W |
| 2.97 | 1 of 3 | 1 of 9 | F27T/Y60R/A101Y |
| nd | 0 of 3 | 1 of 9 | G26Q/R56K/D106E |
| 4.54 | 2 of 3 | 4 of 9 | G26M/V50A/G55K |
| nd | 0 of 3 | 0 of 9 | Y32R/V50N |
| nd | 0 of 3 | 0 of 9 | V50Q/S53E/S107R |
| nd | 0 of 3 | 0 of 9 | D54P/G55Q/K65C |
| nd | 0 of 3 | 1 of 9 | T28A/I34R |
| 4.31 | 1 of 3 | 1 of 9 | L29S/T58V/F59D |
| 4.91 | 3 of 3 | 9 of 9 | Y52V/K65C/G99P |
| 3.08 | 1 of 3 | 0 of 9 | I34L/S53P |
| nd | 0 of 3 | 2 of 9 | S31K/G33N/G103K |
| 0.98 | 3 of 3 | 0 of 9 | S31T/S53H/R100A |
| nd | 0 of 3 | 0 of 9 | R57H/T58N/A102I |
| 3.64 | 2 of 3 | 1 of 9 | R57Q/G99F/R100P |
| 4.67 | 1 of 3 | 1 of 9 | G26A/S31G |
| nd | 0 of 3 | 0 of 9 | T28C/Y32K/S35P |
| nd | 0 of 3 | 0 of 9 | T28M/A102T |
| nd | 0 of 3 | 0 of 9 | Y32K/R56A/D62G |
| nd | 0 of 3 | 3 of 9 | F27C/A101V/F105G |
| 5.86 | 1 of 3 | 3 of 9 | G55Y/K65Q/R100D |
| nd | 0 of 3 | 1 of 9 | G26I/S31G/I51T |
| 5.20 | 1 of 3 | 0 of 9 | S31Y/D54Q/G55R |
| nd | 0 of 3 | 0 of 9 | T28A/I51W/S107D |
| 3.73 | 2 of 3 | 4 of 9 | T28F/S53V/T58H |
| 2.73 | 2 of 3 | 1 of 9 | Y32R/R56A/V64G |
| -0.05 | 3 of 3 | 0 of 9 | N30L/S53A/G61A |
| nd | 0 of 3 | 0 of 9 | T28V/Y32C/K65H |
| nd | 0 of 3 | 1 of 9 | G26T/F27R/T28K |
| 2.85 | 1 of 3 | 1 of 9 | Y52I/R100N/G103R |
| nd | 0 of 3 | 1 of 9 | F27T/S63I/A102F |
| nd | 0 of 3 | 1 of 9 | F27C/L29P/D62Q |
| nd | 0 of 3 | 1 of 9 | Y32M/D54T/F105R |
| nd | 0 of 3 | 1 of 9 | T58Q/G61F/F105I |
| 0.56 | 3 of 3 | 0 of 9 | S63K/A102K |
| nd | 0 of 3 | 0 of 9 | L29I/G33S/R56Q |
| nd | 0 of 3 | 2 of 9 | S53K/F59D/G103D |
| 1.95 | 3 of 3 | 4 of 9 | T28E/S35V/S63N |
| nd | 0 of 3 | 0 of 9 | V50F/R56F/K65A |
| 4.98 | 1 of 3 | 1 of 9 | I34F/S63R/G103F |
| 2.77 | 3 of 3 | 3 of 9 | G26R/I51M/V64F |
| 0.61 | 3 of 3 | 2 of 9 | Y60M/G61I/S63E |
| nd | 0 of 3 | 1 of 9 | V50H/S63H |
| nd | 0 of 3 | 0 of 9 | S31G/S63C |
| nd | 0 of 3 | 0 of 9 | G61F/G99T |
| 3.96 | 1 of 3 | 1 of 9 | R56I/G103T |
| nd | 0 of 3 | 1 of 9 | V50H/F59L/G103I |

A selection of 5 entries from above:

changes,mean log10 Kd (nM),replicates with signal,signal with controls
F27P/G33E/F59H,nd,0 of 3,1 of 9
G55Y/K65Q/R100D,5.86,1 of 3,3 of 9
V50T/F59W/F105R,3.25,1 of 3,1 of 9
L29I/G33S/R56Q,nd,0 of 3,0 of 9
F27T/Y60R/A101Y,2.97,1 of 3,1 of 9

Empty control strains, which show no peptide, gave a signal in 15% of pairings with library AAYL49; the median was 4.06 and 95% of these signals were weaker than 2.83. No background was subtracted. Also given: how often the same scFv was detected with the empty control strains.